Source: ChEMBL document CHEMBL1148459, “1-alkyl-4-acylpiperazines as a new class of imidazole-free histamine H(3) receptor antagonists” (J Med Chem, 2004)

Amino acid sequences for entries named in this document (tags omitted). A change or cut given only in a name is not applied to a line headed by its entry.
UniProt Q9Y5N1: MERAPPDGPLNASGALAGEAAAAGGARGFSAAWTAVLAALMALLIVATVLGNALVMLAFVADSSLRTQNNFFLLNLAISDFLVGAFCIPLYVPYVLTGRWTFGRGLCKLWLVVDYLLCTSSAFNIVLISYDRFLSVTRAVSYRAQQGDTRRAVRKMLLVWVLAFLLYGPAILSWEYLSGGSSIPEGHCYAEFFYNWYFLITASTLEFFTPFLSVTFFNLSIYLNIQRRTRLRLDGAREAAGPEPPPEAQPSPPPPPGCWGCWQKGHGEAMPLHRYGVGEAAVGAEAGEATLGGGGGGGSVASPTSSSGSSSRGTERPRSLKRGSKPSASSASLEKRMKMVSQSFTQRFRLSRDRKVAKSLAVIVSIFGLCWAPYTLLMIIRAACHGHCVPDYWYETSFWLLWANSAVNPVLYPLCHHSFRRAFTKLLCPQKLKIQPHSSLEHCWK

Target: Histamine H3 receptor (Homo sapiens, UniProt Q9Y5N1)
Assay: Antagonist potency against human histamine H3 receptor expressed in CHO cells was determined by GTPgamma-S-assay
Format: functional, cell-based

## NC(=NCc1ccc(Cl)cc1)SCCCc1cnc[nH]1 [CLOBENPROPIT]
  Ki: 0.58 nM
